The values below come from patent US20150299305A1 (Alexion, published 2015).

The Kd is the equilibrium constant for the complex coming apart. High values mean weaker binding, low ones tighter binding. By koff is commonly meant the first-order rate constant of dissociation. High values mean a short-lived complex, low ones a long-lived complex. The term kon denotes the rate constant with which the complex forms.

“And” between values parts separate entries of the source, which are not always exact repeats. Equal values may be shown once. Some results are limits rather than exact numbers.

The target in test [1] is T1, human complement component C5 (human, UniProt P01031 19-673; P01031 678-1676).
T1 construct: mature; Native purified protein; also called human C5; hC5
Nature of the test: SPR, anti-Fc capture, C5 0.19-6 nM, pH 7.4. In general terms: In SPR one partner is held on a chip, and binding of the other changes the refractive index at the surface.

The target of test [2] is T1, human complement component C5. The test can be described thus: SPR, anti-Fc capture, pH 8.0.
The target is the same in test [3]. Nature of the test: SPR, pH 7.4.
The target is the same in test [4]. Nature of the test: SPR, anti-Fc capture, pH 7.0.
Test [5] shares this target. Nature of the test: SPR, pH 6.0.
For test [6] the target is unchanged. Nature of the test: SPR, anti-Fc capture, pH 6.5.
For test [7] the target is unchanged. The test can be described thus: SPR, anti-Fc capture, pH 6.0.
The target is the same in test [8]. Nature of the test: SPR, anti-Fc capture, pH 7.4.
For test [9] the target is unchanged. The test can be described thus: SPR.
Test [10] has the same target. The test can be described thus: SPR, pH 7.4. This is another data set of the same source.
Test [11] has the same target. The test can be described thus: ratio of the KDs of Table 4 at pH 6.0 and pH 7.4.
The target is the same in test [12]. Nature of the test: SPR, pH 6.0. The source holds these as a separate data set.

B1: BNJ441 (antibody, human IgG2, kappa)
heavy: QVQLVQSGAEVKKPGASVKVSCKASGHIFSNYWIQWVRQAPGQGLEWMGEILPGSGHTEYTENFKDRVTMTRDTSTSTVYMELSSLRSEDTAVYYCARYFFGSSPNWYFDVWGQGTLVTVSSASTKGPSVFPLAPCSRSTSESTAALGCLVKDYFPEPVTVSWNSGALTSGVHTFPAVLQSSGLYSLSSVVTVPSSNFGTQTYTCNVDHKPSNTKVDKTVERKCCVECPPCPAPPVAGPSVFLFPPKPKDTLMISRTPEVTCVVVDVSQEDPEVQFNWYVDGVEVHNAKTKPREEQFNSTYRVVSVLTVLHQDWLNGKEYKCKVSNKGLPSSIEKTISKAKGQPREPQVYTLPPSQEEMTKNQVSLTCLVKGFYPSDIAVEWESNGQPENNYKTTPPVLDSDGSFFLYSRLTVDKSRWQEGNVFSCSVLHEALHSHYTQKSLSLSLGK
light: DIQMTQSPSSLSASVGDRVTITCGASENIYGALNWYQQKPGKAPKLLIYGATNLADGVPSRFSGSGSGTDFTLTISSLQPEDFATYYCQNVLNTPLTFGQGTKVEIKRTVAAPSVFIFPPSDEQLKSGTASVVCLLNNFYPREAKVQWKVDNALQSGNSQESVTEQDSKDSTYSLSSTLTLSKADYEKHKVYACEVTHQGLSSPVTKSFNRGEC
notes: IgG2/G4, kappa; also called BNJ441 antibody; BNJ441 engineering batch
On to B1, for which the Kd in test [1] is 0.461 nM and 0.421 nM; in test [2], 0.213 nM; in test [4], 0.911 nM; in test [6] it was 2.19 nM; in test [7] it was 21.8 nM; in test [8] it was 0.491 nM. Also, the koff is 0.000205 s⁻¹ and 0.000204 s⁻¹ in [1]; 0.000133 s⁻¹ in [2]; 0.00039 s⁻¹ in test [4]; 0.000894 s⁻¹ in test [6]; 0.00354 s⁻¹ in [7]; 0.000227 s⁻¹ in [8]. For the same molecule, the kon was 444000 M⁻¹ s⁻¹ and 486000 M⁻¹ s⁻¹ in test [1]; 625000 M⁻¹ s⁻¹ in test [2]; 428000 M⁻¹ s⁻¹ in test [4]; 408000 M⁻¹ s⁻¹ in test [6]; 163000 M⁻¹ s⁻¹ in test [7]; 462000 M⁻¹ s⁻¹ in [8]. Also, the “fold weakening of KD compared with eculizumab” value in [3] was around 17 fold; in test [5] it was around 36 fold.

B2: EHG303 (antibody, human IgG2, kappa)
heavy: LEQVQLVQSGAEVKKPGASVKVSCKASGHIFSNYWIQWVRQAPGQGLEWMGEILPGSGHTEYTENFKDRVTMTRDTSTSTVYMELSSLRSEDTAVYYCARYFFGSSPNWYFDVWGQGTLVTVSSASTKGPSVFPLAPCSRSTSESTAALGCLVKDYFPEPVTVSWNSGALTSGVHTFPAVLQSSGLYSLSSVVTVPSSNFGTQTYTCNVDHKPSNTKVDKTVERKCCVECPPCPAPPVAGPSVFLFPPKPKDTLMISRTPEVTCVVVDVSQEDPEVQFNWYVDGVEVHNAKTKPREEQFNSTYRVVSVLTVLHQDWLNGKEYKCKVSNKGLPSSIEKTISKAKGQPREPQVYTLPPSQEEMTKNQVSLTCLVKGFYPSDIAVEWESNGQPENNYKTTPPVLDSDGSFFLYSRLTVDKSRWQEGNVFSCSVMHEALHNHYTQKSLSLSLGK
light: RDIQMTQSPSSLSASVGDRVTITCGASENIYGALNWYQQKPGKAPKLLIYGATNLADGVPSRFSGSGSGTDFTLTISSLQPEDFATYYCQNVLNTPLTFGQGTKVEIKRTRTVAAPSVFIFPPSDEQLKSGTASVVCLLNNFYPREAKVQWKVDNALQSGNSQESVTEQDSKDSTYSLSSTLTLSKADYEKHKVYACEVTHQGLSSPVTKSFNRGEC
notes: also called Y27H-S57H double substitution
With B2, the “ratio of KD at pH 6.0/pH 7.4” value in test [9] was 8150. In addition, the Kd came out at 0.146 nM in test [10] and 1190 nM in [12]. Also, the “ratio of (KD at pH 6.0)/(KD at pH 7.4)” value in [11] is above 8000.
